The target in this test is PI3K delta (Homo sapiens, UniProt O00329). Description: Enzymatic PI3K delta isoform inhibition (lipid kinase activity, Kinase-Glo). In kind it is biochemical. The arrangement: for the full-length p110-d subunit are generated and fused by overlapping PCR; His tag (C); made in house; host or cells: baculovirus; Tn5 (Trichoplusia ni) or TiniPro insect cells. The conditions noted are these: Enzymatic Assay. As for the experimental part:
1 Determination of Enzymatic PI3K Alpha and PI3K Delta Isoform Inhibition
1.1 Test of Lipid Kinase Activity
The kinase reaction is performed in a final volume of 50 μl per well of a half area COSTAR, 96 well plate. The final concentrations of ATP and phosphatidyl inositol in the assay are 5 μM and 6 μg/mL, respectively. The reaction is started by the addition of PI3 kinase, e.g. PI3 kinase δ.
p110δ. The components of the assay are added per well as follows: • 10 μl test compound in 5% DMSO per well in […]. • Total activity is determined by addition 10 μl of 5% vol/vol DMSO in the first 4 wells of column 1 and the last 4 wells of column 12. • The background is determined by addition of 10 μM control compound to the last 4 wells of column 1 and the first 4 wells of column 12. • 2 mL ‘Assay mix’ are prepared per plate: • 1.912 mL of HEPES assay buffer • 8.33 μl of 3 mM stock of ATP giving a final concentration of 5 μM per well • 1 μl of [^33P]ATP on the activity date giving 0.05 μCi per well • 30 μl of 1 mg/mL PI stock giving a final concentration of 6 μg/mL per well • 5 μl of 1 M stock MgCl2 giving a final concentration of 1 mM per well • 20 μl of the assay mix are added per well. • 2 mL ‘Enzyme mix’ are prepared per plate (x* μl PI3 kinase p110β in 2 mL of kinase buffer). […]
IC50 is determined by a four parameter curve fitting routine that comes along with “excel fit”. […]
A general note: In Kinase-Glo more light means more ATP remaining.

The chains behind the UniProt entries cited, without tags or fusion partners. A line that says so, or that is headed by a name, gives the form on record, which may keep a tag or linker.
UniProt O00329, with tags, fused parts or gaps limits assumed: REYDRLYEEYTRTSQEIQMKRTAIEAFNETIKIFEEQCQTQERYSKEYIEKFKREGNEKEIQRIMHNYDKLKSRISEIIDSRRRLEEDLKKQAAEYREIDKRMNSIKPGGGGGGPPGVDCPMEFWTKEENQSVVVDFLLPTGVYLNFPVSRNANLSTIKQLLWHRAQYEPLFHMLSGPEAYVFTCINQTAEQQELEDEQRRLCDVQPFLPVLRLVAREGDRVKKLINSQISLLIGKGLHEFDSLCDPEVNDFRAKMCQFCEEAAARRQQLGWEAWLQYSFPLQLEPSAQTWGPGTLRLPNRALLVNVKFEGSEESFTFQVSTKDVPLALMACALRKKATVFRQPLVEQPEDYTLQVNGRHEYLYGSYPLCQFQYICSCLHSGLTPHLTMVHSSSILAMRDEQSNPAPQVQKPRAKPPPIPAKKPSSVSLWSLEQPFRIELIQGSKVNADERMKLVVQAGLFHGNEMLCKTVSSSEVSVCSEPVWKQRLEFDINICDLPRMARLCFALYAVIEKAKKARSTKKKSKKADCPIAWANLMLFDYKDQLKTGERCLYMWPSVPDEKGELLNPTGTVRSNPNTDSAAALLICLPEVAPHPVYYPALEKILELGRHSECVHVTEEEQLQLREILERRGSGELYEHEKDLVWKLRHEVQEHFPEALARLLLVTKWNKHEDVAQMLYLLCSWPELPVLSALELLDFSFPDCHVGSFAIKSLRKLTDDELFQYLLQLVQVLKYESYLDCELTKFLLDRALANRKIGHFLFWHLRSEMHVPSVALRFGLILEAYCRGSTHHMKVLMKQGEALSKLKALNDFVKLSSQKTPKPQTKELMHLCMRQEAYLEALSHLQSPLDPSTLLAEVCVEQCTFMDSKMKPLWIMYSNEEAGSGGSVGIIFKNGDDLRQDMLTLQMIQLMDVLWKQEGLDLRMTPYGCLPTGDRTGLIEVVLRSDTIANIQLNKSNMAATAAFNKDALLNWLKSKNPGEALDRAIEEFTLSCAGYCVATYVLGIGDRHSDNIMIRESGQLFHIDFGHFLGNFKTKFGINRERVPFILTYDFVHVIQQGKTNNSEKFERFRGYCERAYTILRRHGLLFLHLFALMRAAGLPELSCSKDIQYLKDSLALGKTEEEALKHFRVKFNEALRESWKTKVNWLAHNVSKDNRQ

SMILES strings stand for the structures.

For orientation: IC50 means the concentration that gives 50% inhibition. Lower therefore signals greater potency. `CCC(=O)N1CC[C@H](Nc2ncnc3c2CN(c2cnc(OC)c(C(F)(F)F)c2)CC3)C1` [Example 67, 1-{(S)-3-[6-(6-Methoxy-5-trifluoromethyl-pyridin-3-yl)-5,6,7,8-tetrahydro-pyrido[4,3-d]pyrimidin-4-ylamino]-pyrrolidin-1-yl}-propan-1-one]: the IC50 is 0.023 µM.

These data come from patent US9949979B2, “Use of inhibitors of the activity or function of PI3K” (NOVARTIS AG, priority 2011, dated 2018).
